In assay [1] the target is T1, L-lactate dehydrogenase (Homo sapiens, UniProt V9HWB9). As to the kind of experiment: Inhibition of LDH in human A673 cells assessed as reduction in lactate production preincubated for 2 hrs measured after 30 mins by high throughput fluorescence assay. Format: cell-based.
Assay [2] deals with T2, L-lactate dehydrogenase A chain (Homo sapiens, UniProt P00338).
Assay [3] has as its target T1, L-lactate dehydrogenase. As to the kind of experiment: Inhibition of LDH in human MIAPaCa2 cells assessed as reduction in lactate production preincubated for 2 hrs measured after 30 mins by high throughput fluorescence assay. Format: cell-based.
Assay [4] concerns the target T2, L-lactate dehydrogenase A chain. This is another data set of the same source.
Assay [5] has the same target. This is another data set of the same source.

For four compounds, IC50 and EC50 results are on record in ChEMBL document CHEMBL4028893, “Discovery and Optimization of Potent, Cell-Active Pyrazole-Based Inhibitors of Lactate Dehydrogenase (LDH)” (J Med Chem, 2017).

Broadly, the IC50 is the concentration that gives 50% inhibition. As a reminder, the EC50 is the concentration that produces a half-maximal response. `NS(=O)(=O)c1ccc(Cc2c(-c3ccc(F)c(F)c3)nn(-c3nc(C(=O)O)cs3)c2O)cc1`: the IC50 at L-lactate dehydrogenase [1] was above 57 µM. The compound further came in with an EC50 in assay [2] of 3.53 µM. Regarding `NS(=O)(=O)c1ccc(Cc2c(-c3cccc(-c4ccccc4)c3)nn(-c3nc(C(=O)O)cs3)c2CC2CC2)cc1`, the IC50 on L-lactate dehydrogenase [1] fell in the range of 0.517 to 0.85 µM. For `NS(=O)(=O)c1ccc(Oc2c(-c3cccc(-c4ccccc4)c3)nn(-c3nc(C(=O)O)cs3)c2C2CC2)cc1`, the IC50 at L-lactate dehydrogenase [3] stood at 1.96 µM. In the case of `NS(=O)(=O)c1ccc(Cc2c(-c3cccc(Br)c3)nn(-c3nc(C(=O)O)cs3)c2O)cc1`, the IC50 in assay [4] and in assay [5] was 2.37 µM throughout.
